This series has as its system isolated kidney cells (IKC). Kind of series: Pretreatment with antioxidants or enzyme inhibitors before 3,5-DCNB, LDH release in IKC. The conditions noted are these: 1.0 mM 3,5-DCNB, 60 min, pretreatment concentrations per Table 4. In general terms: LDH in the medium is a marker of cell lysis.

As to `Cn1cc[nH]c1=S` [methimazole], the “effect of pretreatment on 3,5-DCNB-induced cytotoxicity (LDH release)” value is “significantly attenuated”.
